Experimental data as given in patent US7499847B2, “Crystalline VAP-1 and uses thereof” (Biotie Therapies Corporation, priority 2003, dated 2009).

Sequences of proteins named here, by UniProt entry; tags and fusion partners are left off.
UniProt Q16853, whole entry: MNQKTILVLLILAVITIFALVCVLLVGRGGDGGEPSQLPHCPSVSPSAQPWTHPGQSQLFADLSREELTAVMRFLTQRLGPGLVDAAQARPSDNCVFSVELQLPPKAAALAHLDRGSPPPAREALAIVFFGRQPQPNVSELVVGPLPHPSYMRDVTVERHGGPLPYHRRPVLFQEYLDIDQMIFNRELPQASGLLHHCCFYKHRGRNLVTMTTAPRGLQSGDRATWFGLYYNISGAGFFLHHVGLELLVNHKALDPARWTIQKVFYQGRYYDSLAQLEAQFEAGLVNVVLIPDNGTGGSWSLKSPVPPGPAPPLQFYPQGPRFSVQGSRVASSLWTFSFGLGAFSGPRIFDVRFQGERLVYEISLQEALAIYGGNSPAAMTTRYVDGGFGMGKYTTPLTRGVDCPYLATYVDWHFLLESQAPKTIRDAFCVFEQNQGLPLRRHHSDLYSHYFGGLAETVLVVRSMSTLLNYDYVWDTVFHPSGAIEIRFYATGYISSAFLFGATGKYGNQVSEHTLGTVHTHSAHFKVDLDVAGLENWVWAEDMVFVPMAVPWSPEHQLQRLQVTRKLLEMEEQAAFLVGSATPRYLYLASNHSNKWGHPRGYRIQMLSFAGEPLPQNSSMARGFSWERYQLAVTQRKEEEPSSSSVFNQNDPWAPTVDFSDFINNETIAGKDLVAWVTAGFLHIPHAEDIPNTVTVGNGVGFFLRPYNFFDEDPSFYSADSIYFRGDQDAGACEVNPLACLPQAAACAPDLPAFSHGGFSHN

Columns and labels:
[1] = target: Recombinant human VAP-1 SSAO (Homo sapiens, UniProt Q16853); test: VAP-1 SSAO activity, coupled colourimetric assay (benzylamine substrate); format: biochemical; conditions: for Selectivity for VAP-1 SSAO over MAO: ratio of total rat MAO IC50 to human VAP-1 SSAO IC50; for IC50: read-out: VAP-1 SSAO inhibitory activity IC50, CHO cell lysate with recombinant human VAP-1 SSAO, 1 mM benzylamine, 1 h at 37° C.
Description: VAP-1 SSAO activity was measured using the coupled colourimetric method essentially as described for monoamine oxidase and related enzymes. Recombinant human VAP-1 SSAO expressed in Chinese Hamster Ovary (CHO) cells was used as a source of VAP-1 SSAO for activity measurements. Native CHO cells have negligible SSAO activity. These cells and their culture have previously been described (Smith D J et al., 1998).
A cell lysate was prepared by suspending approximately 3.6×10^8 cells in 25 ml lysis buffer (150 mM NaCl, 10 mM Tris-Base pH 7.2, 1.5 mM MgCl2, 1% NP40) and incubating at 4° C. overnight on a rotating table. The lysate was clarified by centrifugation at 18000 g for 5 min at room temperature and the supematant used directly in the assay.
The VAP-1 SSAO assay was performed in 96 well microtitre plates as follows. To each well was added a predetermined amount of inhibitor if required. The amount of inhibitor varied in each assay but was generally at a final concentration of between 1 nM and 50 μM. Controls lacked inhibitor. The inhibitor was in a total volume of […] in water. The following reagents were then added. 0.2M potassium phosphate buffer pH 7.6 to a total reaction volume of 200 μl, 45 μl of freshly made chromogenic solution containing 1 mM 2,4-dichlorophenol, 500 μM 4-aminoantipyrine and 4 U/ml horseradish peroxidase and an amount of CHO cell lysate containing VAP-1 SSAO that caused a change of 0.6 A490 per h. This was within the linear response range of the assay.
The plates were incubated for 30 min at 37° C. and the background absorbance measured at 490 nm using a Wallac Victor II multilabel counter. To initiate the enzyme reaction 20 μl 10 mM benzylamine (final concentration=1 mM) was added and the plate incubated for 1 h at 37° C.
The increase in absorbance, reflecting VAP-1 SSAO activity, was measured at 490 nm. Inhibition was presented as percent inhibition compared to control after correcting for background absorbance and IC50. values calculated using GraphPad Prism.

[2] = system: Total rat MAO (rat liver mitochondrial preparate); test: Total rat MAO activity, colourimetric assay (tyramine substrate); format: biochemical; conditions: read-out: Total MAO inhibitory activity IC50; rat liver MAO preparation, 0.5 mM tyramine, 1 h at 37° C.
Description: Rat MAO was prepared from rat liver by rinsing a 1 g liver sample several times in 14 ml KCl-EDTA-solution to remove all blood. Then 1 g liver sample was homogenised in 4 ml ice-cold potassium phosphate buffer (0.1 M, pH 7.4) with an Ultra-Turrax homogeniser (setting 11 000 rpm, 4×10 s). After centrifugation at 500 g for 10 min at 4° C. the supematant was carefully withdrawn and was centrifuged at 12 300 g for 15 min at 4° C. The supernatant was discharged and sedimented mitochondria were resuspended in 4 ml fresh phosphate buffer and centrifuged as previously. The mitochondria were suspended in 4 ml phosphate buffer and homogenized with an Ultra-Turrax homogeniser (setting 11 000 rpm, 2×10 s). Mitochondrial preparate was aliquoted and stored at −70° C. […] To each well was added a predetermined amount of inhibitor if required. The amount of inhibitor varied in each assay but was generally at a final concentration of between 10 nM and […]. Controls lacked inhibitor. […] The plates were incubated for 30 min at 37° C. and the background absorbance measured at 490 nm using a Wallac Victor II multilabel counter. […] The increase in absorbance, reflecting MAO activity, was measured at 490nm. Inhibition was presented as percent inhibition compared to control after correcting for background absorbance and IC50 values calculated using GraphPad Prism. […]

**Q.** For `COc1cccc(OC[C@H](O)CN(C)N)c1`, which Selectivity for VAP-1 SSAO over MAO [1] is on record?
**A.** 62

**Q.** What about the IC50 [1] of the same molecule?
**A.** 0.39 µM

**Q.** And the IC50 [2]?
**A.** 21 µM

**Q.** For `COc1cccc(OC[C@@H](O)CN(C)N)c1`, which Selectivity for VAP-1 SSAO over MAO [1] is on record?
**A.** 94

**Q.** What about the IC50 [1] of the same molecule?
**A.** 0.34 µM

**Q.** And the IC50 [2]?
**A.** 32 µM
